The values that follow are results of earlier work, collected in patent US12551475B2, “Methods and compositions for treating RNA viral infections” (Model Medicines, Inc., priority 2020, dated 2026).

Molecules are shown by their SMILES. Read-outs that look alike come from different tables or passages of the source.

One series concerns the target HIV protease (Human immunodeficiency virus type 1 group M subtype B, UniProt P04585). The conditions noted are these: cited from earlier work.
Another series relates to P. falciparum. The conditions noted are these: cited from earlier work.

In the case of `CC(C)CN(C[C@@H](O)[C@H](Cc1ccccc1)NC(=O)O[C@H]1CCOC1)S(=O)(=O)c1ccc(N)cc1` [Amprenavir, N-[(1S,2R)-3-[[(4-aminophenyl)sulfonyl](2-methylpropyl)amino]-2-hydroxy-1-(phenylmethyl)propyl]-carbamic acid, (3S)-tetrahydro-3-furanyl ester], on HIV protease, the Ki (as a rule, a measure of affinity in units of concentration, obtained from inhibition or displacement) was 0.04 nM.
As to `CCC[C@@H]1C[C@@H](C(=O)N[C@@H]([C@H]2O[C@H](SC)[C@H](O)[C@@H](O)[C@H]2O)[C@H](C)Cl)N(C)C1` [Clindamycin, methyl 7-chloro-6,7,8-trideoxy-6-[[[(2S,4R)-1-methyl-4-propyl-2-pyrrolidinyl]carbonyl]amino]-1-thio-L-threo-α-D-galacto-octopyranoside], the concentration for half-maximal inhibition (IC50) – broadly, the midpoint of a concentration-inhibition curve – with P. falciparum (chloroquine-resistant strain) is 3.12 nM; with P. falciparum (chloroquine-sensitive strain) it was 8.81 nM.
